From PubChem BioAssay AID652163 (Broad Institute, 2013) come the findings set out here.

Chains of the proteins cited; added tags and fusions are not shown.
UniProt P26447, whole entry: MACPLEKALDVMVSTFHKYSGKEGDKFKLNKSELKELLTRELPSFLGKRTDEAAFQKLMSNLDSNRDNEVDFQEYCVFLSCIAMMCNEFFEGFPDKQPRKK

The list shows a part of the results, in another mix than the full data. The source made the active and inactive calls.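 Rule for the calls: active = mean inhibition of at least 70% across replicates, with every replicate also reaching that level; inconclusive = mean inhibition reaches 70% but some replicates fall short; inactive = mean inhibition below 70%.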

The assay deals with Protein S100-A4 (Homo sapiens) (UniProt P26447). Kind of assay: human S100A4 protein-peptide interaction blockers – biochemical, fluorescence polarization, TAMRA-MyoIIA peptide, primary screen (AID 652163). Conditions: at 10.7 µM, active compounds read high. (Polarisation of emitted light reports the rotation of a fluorescent probe.)
`CCC(=O)N(c1ccccc1)C1(COC)CCN(CCc2cccs2)CC1`: the inhibition is inactive: -1.32%.
Under `CCC(=O)N(c1ccccc1)C1(COC)CCN(CCn2nnn(CC)c2=O)CC1` stands inactive: -1.33%.

One may read the inhibition as the change of the read-out against control, counted positive when it falls.
